Among the data in US20230233541A1, “SUBSTITUTED BENZAMIDES AS MODULATORS OF TREX1” (Constellation Pharmaceuticals, Inc., priority 2020, published 2023) are EC50 values, retold here.

Amino acid sequences for entries named in this document (tags omitted).
UniProt Q9NSU2, whole entry: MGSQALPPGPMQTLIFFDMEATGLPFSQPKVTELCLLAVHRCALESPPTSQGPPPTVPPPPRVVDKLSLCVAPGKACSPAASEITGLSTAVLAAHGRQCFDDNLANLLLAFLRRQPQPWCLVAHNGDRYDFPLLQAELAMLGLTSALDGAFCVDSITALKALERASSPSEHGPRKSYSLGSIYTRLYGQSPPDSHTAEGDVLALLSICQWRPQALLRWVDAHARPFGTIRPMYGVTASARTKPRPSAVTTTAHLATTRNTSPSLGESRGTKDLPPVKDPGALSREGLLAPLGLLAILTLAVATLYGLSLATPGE
UniProt Q9BQ50, whole entry: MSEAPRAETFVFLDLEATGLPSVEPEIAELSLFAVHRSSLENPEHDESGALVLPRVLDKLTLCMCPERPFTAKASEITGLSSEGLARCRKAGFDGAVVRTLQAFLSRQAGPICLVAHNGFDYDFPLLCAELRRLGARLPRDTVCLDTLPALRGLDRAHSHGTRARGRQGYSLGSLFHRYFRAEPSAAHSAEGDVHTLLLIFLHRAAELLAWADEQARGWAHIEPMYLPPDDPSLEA

One test has as its target full length human TREX1 (Homo sapiens, UniProt Q9NSU2). As to the kind of experiment: TREX1 Biochemical Assay (fluorescence assay, degradation of dsDNA substrate). Particulars: read-out: hTREX1 EC50; 150 pM TREX1, 60 nM dsDNA substrate, 25 minutes at room temperature. The protocol: (§1) Degradation of the dsDNA liberates free fluorophore to produce a fluorescent signal. Specifically, 7.5 μL of N-terminally His-Tev tagged full length human TREX1 (expressed in E. coli and purified in house) in reaction buffer (50 mM Tris (pH 7.4), 150 mM NaCl, 2 mM DTT, 0.1 mg/mL BSA, 0.01% (v/v) Tween-20 and 100 mM MgCl2) was added to a 384-well Black ProxiPlate Plus (Perkin Elmer) which already contained compound (150 nL) at varying concentrations as a 10-point dose-response in DMSO. To this was added 7.5 μL of dsDNA substrate (Strand A: 5′ TEX615/GCT AGG CAG 3′; Strand B: 5′ CTG CCT AGC/IAbRQSp (Integrated DNA Technologies)) in reaction buffer. Final concentrations were 150 pM TREX1, 60 nM dsDNA substrate in reaction buffer with 1.0% DMSO (v/v). After 25 minutes at room temperature, reactions were quenched by the addition of 5 μL of stop buffer (same as reaction buffer plus 200 mM EDTA). […] After a 5-minute incubation at room temperature, plates were read in a laser sourced Envision (Perkin-Elmer), measuring fluorescence at 615 nm following excitation w/570 nm light. IC50 values were calculated by comparing the measured fluorescence at 615 nm ratio relative to control wells pre-quenched w/stop buffer (100% inhibition) and no inhibitor (0% inhibition) controls as using non-linear least square four parameter fits and either Genedata or GraphPad Prism (GraphPad Software, Inc.).

In test [1] the target is human TREX2 (residues M44-A279) (Homo sapiens, UniProt Q9BQ50). The test can be described thus: TREX2 Biochemical Assay (fluorescence assay, degradation of dsDNA substrate). Conditions: read-out: hTREX2 EC50; 2.5 nM TREX2, 60 nM dsDNA substrate, 25 minutes at room temperature. The protocol: as §1, with “tagged” for “tagged full length”, “TREX2 (residues M44-A279, expressed” for “TREX1 (expressed”, “(IDT))” for “(Integrated DNA Technologies))”, “2.5 nM TREX2,” for “150 pM TREX1,”

In general, EC50 refers to the concentration giving half of the maximal effect. On to `O=C(c1ccc2ccccc2c1)N(Cc1cccnc1)Cc1cc(Cl)cc(Cl)c1`, for which the EC50 was more than 10 µM on full length human TREX1 and more than 100 µM in test [1].

In the case of `Cc1c(Cl)cccc1CN(Cc1ccc(C(=O)O)nc1)C(=O)c1cc(F)cc(F)c1`, the EC50 is less than 0.1 µM at full length human TREX1 and 1 to 10 µM in test [1].
